Binding of CDR-mutated scFvs to a peptide of the spike HR2 region

Source: Engelhart et al. 2022 (doi:10.1038/s41597-022-01779-4), MIT Lincoln Laboratory and A-Alpha Bio; data file from the FLAb repository.

Antigen: PDVDLGDISGINAS, a 14-residue peptide of the SARS-CoV-2 spike HR2 region.

Ab-14 is the parent antibody, in scFv form: VH, then the linker GGGGSGGGGSGGGGS, then VL. The light chain is unchanged in all variants.
VH: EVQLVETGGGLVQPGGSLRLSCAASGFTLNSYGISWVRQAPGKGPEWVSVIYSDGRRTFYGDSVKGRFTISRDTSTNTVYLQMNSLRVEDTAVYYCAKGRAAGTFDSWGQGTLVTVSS
VL: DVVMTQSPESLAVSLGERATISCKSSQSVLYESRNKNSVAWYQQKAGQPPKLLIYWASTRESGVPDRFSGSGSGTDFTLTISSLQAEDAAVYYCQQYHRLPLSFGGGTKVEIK

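The starting antibody came from a phage panning campaign against this peptide. Library AAYL49 holds single substitutions and randomly drawn double and triple substitutions in the CDRs. In AlphaSeq, yeast of one mating type display the scFv and yeast of the other type display the target. After mating in shaken culture at 30 °C for 16 h, diploids were selected and their barcode pairs sequenced. A regression on co-assayed BCL2-family reference pairs converts the normalised counts of each replicate to an apparent Kd. Mating was done three times.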

Variants are written as CDR1, CDR2 and CDR3 of the heavy chain (limits as in the source). Parent: GFTLNSYGIS, VIYSDGRRTFYGDSVK, GRAAGTFDS.
All variants listed here change G33 of the VH, counted from its first residue.
Numbers give log10(Kd / nM), so 0 is 1 nM and 3 is 1 µM. Smaller is tighter.
Replicates are averaged; those with no signal do not enter the mean.
Where no diploid with the target was found in that replicate, the entry reads "ND": below detection, most likely a poor binder, though not proof of it.

Variant GFTLWSYMIS / VIYSDGRRTFYGDSVK / NRAAGTFDS showed 4.37, ND, 4.60 (mean 4.49; controls 1 of 9). Variant GFTTNSYTIS / VMYSDGRRTFYGDSVK / GRAAGTFDS gave 4.98, 5.27, ND (mean 5.13; controls 0 of 9). With GFTLNSYLIS / VIYSDGRRFFYGDSVK / GWAAGTFDS the result was 3.77, ND, ND (controls 0 of 9). Variant GFTLNSYEIS / VIYSVGRRTFYGDPVK / GRAAGTFDS gave ND, ND, ND (controls 0 of 9). With GFTLNSYIIR / VIYSDGRRTFYGDSVK / GRAAGTFRS the result was ND, ND, ND (controls 0 of 9). With GFTLESYHIS / VIYSDGRRTFYGDSVK / GRAAGTFDS the result was ND, ND, ND (controls 0 of 9). For GFTLNSYPIS / VIYSTGRRTFYGDSVK / GRAAGTFDS, the assay gave ND, ND, ND (controls 0 of 9).

With GFTLNSYKIS / VIYSDGRRTSYGDSVK / GRAAGTFDN the result was 5.44, ND, 4.10 (mean 4.77; controls 0 of 9). Variant GFTLNSYVIS / VIYSDGRTTFYGWSVK / GRAAGTFDS gave 4.56, ND, 5.77 (mean 5.17; controls 2 of 9). Variant GFTLCSYHIS / VIYSDGRRTFYGDSVK / GRAAGTSDS gave ND, ND, ND (controls 1 of 9). With GMTLNSYAIS / VWYSDGRRTFYGDSVK / GRAAGTFDS the result was ND, 3.94, ND (controls 1 of 9). With GFTLNSYPIS / NIYSDGRRTFYGDHVK / GRAAGTFDS the result was ND, 5.37, 6.09 (mean 5.73; controls 5 of 9). Variant GFILNSYVIS / VIYSDGRRTFYGDSVK / GRAAGHFDS gave ND, ND, ND (controls 1 of 9). Variant GFTLVSYLIS / VIYSDGRKTFYGDSVK / GRAAGTFDS showed ND, ND, ND (controls 0 of 9).

With GFTLNSYMIS / VIYSDGRRTFYWDSVK / GRFAGTFDS the result was ND, ND, ND (controls 1 of 9). With GFTLNSYIIS / VIYSDNRRTFYGDSVK / GRASGTFDS the result was 5.63, 4.47, 3.86 (mean 4.65; controls 6 of 9). Variant GFTLNSKNIS / VIYSDVRRTFYGDSVK / GRAAGTFDS gave ND, 3.07, ND (controls 3 of 9). Variant GFTANSYEIS / VCYSDGRRTFYGDSVK / GRAAGTFDS gave 5.08, ND, ND (controls 2 of 9). Variant GFTLNSYIIS / VIYWDGRRTFYGDSVK / QRAAGTFDS gave ND, ND, ND (controls 0 of 9). With GFTLNSYDIS / VIYSEGRRSFYGDSVK / GRAAGTFDS the result was ND, ND, ND (controls 0 of 9). With GFTLNSYNIS / VIYSDGCRTFYGDSVK / GRAAGTFDS the result was ND, 3.93, ND (controls 2 of 9).

With GFTLNSYIMS / VIYSDGRRTFYGDSVK / GQAAGTFDS the result was 4.08, ND, ND (controls 1 of 9). Variant GFTLNSYSIS / VIYSDGRRTFYGDSVK / GRAARTFDL showed ND, 3.10, ND (controls 5 of 9). Variant GFTLNSYPIS / VIYSDGRRTFYGDSVK / GRAAGHFDS gave 5.90, 3.56, ND (mean 4.73; controls 4 of 9). Variant GFTLNSYNIS / VIYSDGRRTFYGDSVK / GTAAGTFES gave ND, ND, ND (controls 0 of 9). Variant GFTLNSTIIS / VIYSDGRRTFYGDSVK / GRANGTFDS gave ND, 4.15, ND (controls 1 of 9). Variant GFTLNSYSIS / VIYSDGRRTFYGDSVK / GRAAGGFSS showed ND, 4.35, ND (controls 1 of 9). With GFTLNSYKIW / VIYSDGRRTFYGDSNK / GRAAGTFDS the result was ND, ND, ND (controls 1 of 9).

For GFTLNSYKIQ / VNYSDGRRTFYGDSVK / GRAAGTFDS, the assay gave 3.86, ND, ND (controls 0 of 9). For GSTLNSYFIS / VIYSDGRRTFYGDSVK / GRAAGTCDS, the assay gave ND, ND, ND (controls 1 of 9). For GFTLNSYPIS / VIYWDGRRTFYGDSVK / GFAAGTFDS, the assay gave ND, 3.84, ND (controls 2 of 9). Variant TFTLNSYHIS / VIYSDGRRTFYGDSVK / GRAAGTFHS showed ND, ND, ND (controls 0 of 9). With GFTLNSYAIS / VIASDGRRTFYGDSVH / GRAAGTFDS the result was ND, 3.66, ND (controls 3 of 9). For GFTLNSYVIS / WIYSDGRRTFYGDSVH / GRAAGTFDS, the assay gave 3.52, ND, ND (controls 1 of 9). With GFTLNSYNIS / VIYSDGRRTFYGDSVK / GGAAGTFDS the result was 5.21, 4.99, ND (mean 5.10; controls 4 of 9).

Variant GFTLNSYLIS / VIYKDGRRTFYLDSVK / GRAAGTFDS gave ND, 3.99, ND (controls 5 of 9). Variant GFTLFSYLIS / VIYSDGRRTFYGDSVK / GRAAGTFDS showed 4.39, ND, ND (controls 0 of 9). With GFTLNHYHIS / VIYSDGRRTFYGDCVK / GRAAGTFDS the result was ND, ND, ND (controls 0 of 9). For GFTLESYCFS / VIYSDGRRTFYGDSVK / GRAAGTFDS, the assay gave 3.70, ND, ND (controls 0 of 9). With GFTLNRPWIS / VIYSDGRRTFYGDSVK / GRAAGTFDS the result was ND, ND, ND (controls 1 of 9). Variant GFTLNSYHIS / VIYSDGRRTFYGDSVK / GRAAMTFDS gave 3.39, 3.31, ND (mean 3.35; controls 1 of 9). Variant AFTLNSYVIS / VIYSDGRRTFYGASVK / GRAAGTFDS showed ND, ND, ND (controls 0 of 9).

For GFTLNSYCIS / VIYSDGSRTFTGDSVK / GRAAGTFDS, the assay gave ND, ND, 5.02 (controls 3 of 9). Variant GHTLNSYPIS / VIHSDGRRTFYGDSVK / GRAAGTFDS gave 4.58, ND, 4.20 (mean 4.39; controls 4 of 9). Variant GFTLNSHQIS / VIYPDGRRTFYGDSVK / GRAAGTFDS showed ND, ND, ND (controls 0 of 9). With GFTLNSYLIS / VIYSDGRRTFYGDSNK / GRAAGTYDS the result was ND, ND, ND (controls 1 of 9). Variant GFTLNSYAIS / VIYSDGRRTFDGDSVK / GRAAQTFDS showed ND, ND, ND (controls 0 of 9). Variant GFTLNSYHIS / VIYSDGRRTFYGDTVK / GRAAGTFDD showed ND, ND, ND (controls 0 of 9). Variant GFTLNSKRIS / VIYSDGRRTFYGDSVK / GRAAGTFAS gave ND, ND, ND (controls 0 of 9).

Excerpt, the first 7 entries:

With GFTLWSYMIS / VIYSDGRRTFYGDSVK / NRAAGTFDS the result was 4.37, ND, 4.60 (mean 4.49; controls 1 of 9).
With GFTTNSYTIS / VMYSDGRRTFYGDSVK / GRAAGTFDS the result was 4.98, 5.27, ND (mean 5.13; controls 0 of 9).
With GFTLNSYLIS / VIYSDGRRFFYGDSVK / GWAAGTFDS the result was 3.77, ND, ND (controls 0 of 9).
With GFTLNSYEIS / VIYSVGRRTFYGDPVK / GRAAGTFDS the result was ND, ND, ND (controls 0 of 9).
With GFTLNSYIIR / VIYSDGRRTFYGDSVK / GRAAGTFRS the result was ND, ND, ND (controls 0 of 9).
With GFTLESYHIS / VIYSDGRRTFYGDSVK / GRAAGTFDS the result was ND, ND, ND (controls 0 of 9).
With GFTLNSYPIS / VIYSTGRRTFYGDSVK / GRAAGTFDS the result was ND, ND, ND (controls 0 of 9).

Parent in this assay: reference entry 0.65, copy in this library 4.11 (one replicate of three).
Three control strains display no target. For library AAYL49, 15% of the pairings with them gave a signal, with a median of 4.06 and one signal in twenty below 2.83, so weak values seen in few replicates may be background. Also given: how often the same scFv was detected with the empty control strains.